Patent US5214055A, “Aminopiperidine 4-oxo-4H-chromen-2-yl compounds” (Adir et Compagnie, priority 1990, dated 1993)
Structures can show the parent of a compound that is named as a salt.

The chains behind the UniProt entries cited, without tags or fusion partners.
UniProt P19327, whole entry, looked up: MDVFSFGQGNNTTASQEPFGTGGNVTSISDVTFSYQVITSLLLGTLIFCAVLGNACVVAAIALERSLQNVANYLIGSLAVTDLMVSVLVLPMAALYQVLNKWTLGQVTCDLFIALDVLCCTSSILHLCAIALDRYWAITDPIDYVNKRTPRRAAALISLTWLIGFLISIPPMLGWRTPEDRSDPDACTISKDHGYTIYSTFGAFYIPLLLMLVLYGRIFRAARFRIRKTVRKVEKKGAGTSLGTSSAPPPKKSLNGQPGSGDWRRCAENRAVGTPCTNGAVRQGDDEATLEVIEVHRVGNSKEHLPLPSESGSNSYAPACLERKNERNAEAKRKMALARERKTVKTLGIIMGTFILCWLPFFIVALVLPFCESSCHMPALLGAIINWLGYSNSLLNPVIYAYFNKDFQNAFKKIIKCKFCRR

biological target: 5HT1A receptor (Rattus norvegicus, UniProt P19327); assay: "Tail-Flicks" test on rats (reduction of 8-OH-DPAT induced tail movements); format: in vivo; conditions: s.c. route, tail movements induced by subcutaneous 8-OH-DPAT

SMILES	ED50 (amount that reduces 8-OH-DPAT action by 50%) [mg/kg]
CCC(=O)N(C)C1CCN(CC2Cc3ccccc32)CC1 (stereo not shown)	1.25
CCC(=O)N(C)C1CCN(C2Cc3ccccc3C2)CC1	0.31
CN(C(=O)Oc1ccccc1)C1CCN(CC2Cc3ccccc32)CC1 (stereo not shown) [Example 12, Phenyl N-[1-(benzocyclobuten-1-ylmethyl)-piperid-4-yl]-N-methylcarbamate hydrochloride]	2.50
CCCC(=O)N(C)C1CCN(CC2Cc3ccccc32)CC1 (stereo not shown)	1.25
